± gives the expanded uncertainty stated by the source.
Test: activity coefficient (dimensionless); of the first substance listed, at infinite dilution; xn = mol fraction of the nth substance listed
Conditions: 101 kPa, Liquid, Chromatography, x1 = 0

CCCCOCCCC [dibutyl ether] + CCn1cc[n+](C)c1.CS(=O)(=O)[O-]
activity coefficient (308.15 K): 247 ± 17 | activity coefficient (318.15 K): 221 ± 15 | activity coefficient (328.15 K): 199 ± 14 | activity coefficient (338.15 K): 179 ± 12 | activity coefficient (348.15 K): 165 ± 11
